The values below come from patent publication US20100016313A1, “INTESTINAL ALKALINE PHOSPHATASE MODULATORS AND USES THEREOF” (Burnham Institute for Medical Research, priority 2008, published 2010).

This test concerns the target T1, human IAP (Homo sapiens, UniProt P09923).
T1 construct: made in house; host or cells: COS-1 cells, transient expression from pCMV-Script; conditioned serum-free medium used as enzyme stock
T1 sequence (P09923 20-503 limits assumed): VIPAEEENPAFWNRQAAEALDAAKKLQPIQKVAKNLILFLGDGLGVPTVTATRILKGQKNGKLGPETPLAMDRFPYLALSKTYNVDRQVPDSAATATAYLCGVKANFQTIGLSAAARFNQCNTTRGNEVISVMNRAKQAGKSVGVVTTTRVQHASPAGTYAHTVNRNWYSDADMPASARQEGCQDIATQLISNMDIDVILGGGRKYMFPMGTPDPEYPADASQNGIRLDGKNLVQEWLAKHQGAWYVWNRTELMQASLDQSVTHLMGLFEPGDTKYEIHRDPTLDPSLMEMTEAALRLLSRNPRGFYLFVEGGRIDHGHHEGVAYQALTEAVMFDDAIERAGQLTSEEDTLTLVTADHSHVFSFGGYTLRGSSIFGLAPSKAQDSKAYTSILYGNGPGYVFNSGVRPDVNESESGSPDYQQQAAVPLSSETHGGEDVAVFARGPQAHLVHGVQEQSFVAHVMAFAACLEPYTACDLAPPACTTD
Description: IAP assay using CDP-Star (chemiluminescent, dose response). It counts as biochemical. The source says: An expression vector pCMV-Script containing cDNA for human IAP, TNAP, PLAP, GCAP, mouse TNAP, dIAP, EAP or gIAP in secreted form (FLAG-tagged) is transfected into COS-1 cells for transient expression using a standard electroporation method. The GPI anchoring site is replaced by a FLAG sequence to make the proteins secreted into the media as well as to test their kinetics in a form immobilized by anti-FLAG antibody (Narisawa, et al, 2007). Medium is changed to serum free medium Opti-MEM (Invitrogen) 24 h later, and media containing secreted proteins was collected 66 hr after electroporation. Conditioned medium filtered by a 2 μm cellulose acetate membrane is supplemented with 0.1% BSA, aliquotted and stored at −80° C. […]
Compound aliquots (4 μL at […] in 10% DMSO) are added to 8 μL of human IAP working solution of a the human IAP stock solution diluted 1:80 in assay buffer (250 mM DEA, pH 9.8, −2.5 mM MgCl2, −0.05 μM ZnCl2). […] The CDP-Star system is chosen for the primary screening rather than the classic calorimetric assay using pNPP as a substrate, since the chemiluminescent reaction with CDP-Star has higher sensitivity and is not affected by the endogenous absorbance of some compounds in the library and/or of tissue extracts. The final concentration of CDP-Star (442.5 μM) is equal to its Km value determined in assay buffer. […]

The term IC50 denotes the concentration needed to halve the response being measured. In the case of `O=C1C2C3C=CC(C3)C2C(=O)N1c1n[nH]c(CCc2ccccc2)n1` (stereo not shown) [Compound F10], the IC50 turned out to be 4.75 µM.
